Publication PMC12102759 (Protein Science : A Publication of the Protein Society, 2025)

Chains of the proteins cited; added tags and fusions are not shown. Residues count along the entry.
UniProt Q9Y490, 309-401: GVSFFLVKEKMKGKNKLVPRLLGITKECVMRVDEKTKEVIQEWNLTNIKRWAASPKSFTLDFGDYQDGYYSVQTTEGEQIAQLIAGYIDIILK

Molecular target: TLN1 PTB (Homo sapiens, UniProt Q9Y490)
Assay type: binding
[1] = DMS-BM phage selection against TLN1 PTB, log2 of summed NGS counts

| Substance | DMS-derived PSSM value of the single-substitution variant | also measured |
| --- | --- | --- |
| TDERSWVYSPLHYSAQ T1I (IDERSWVYSPLHYSAQ) | 0.02349 |  |
| FPTDERSWVYSPLHYS S11T (FPTDERSWVYTPLHYS) | 0.0282 |  |
| TDERSWVYSPLHYSAQ Y8V (TDERSWVVSPLHYSAQ) | 0.09843 |  |
| FPTDERSWVYSPLHYS P12A (FPTDERSWVYSALHYS) | 0.1318 |  |
| TDERSWVYSPLHYSAQ W6P (TDERSPVYSPLHYSAQ) | 0.01862 |  |
| FPTDERSWVYSPLHYS P12R (FPTDERSWVYSRLHYS) | 0.06553 |  |
| FPTDERSWVYSPLHYS E5R (FPTDRRSWVYSPLHYS) | 0.001144 |  |
| TDERSWVYSPLHYS(averaged) L11A (TDERSWVYSPAHYS) |  | DMS-derived PSSM value, averaged over the two overlapping peptides: 0.02868 |
| TDERSWVYSPLHYSAQ D2Q (TQERSWVYSPLHYSAQ) | 0.0463 |  |
| TDERSWVYSPLHYS(averaged) L11D (TDERSWVYSPDHYS) |  | DMS-derived PSSM value, averaged over the two overlapping peptides: 0 |
| TDERSWVYSPLHYSAQ R4H (TDEHSWVYSPLHYSAQ) | 0.0204 |  |
| TDERSWVYSPLHYSAQ S9A (TDERSWVYAPLHYSAQ) | 0.05967 |  |
| FPTDERSWVYSPLHYS E5Q (FPTDQRSWVYSPLHYS) | 0.006665 |  |
| FPTDERSWVYSPLHYS V9K (FPTDERSWKYSPLHYS) | 0.04952 |  |
| TDERSWVYSPLHYS(averaged) S14M (TDERSWVYSPLHYM) |  | DMS-derived PSSM value, averaged over the two overlapping peptides: 0.04111 |
| FPTDERSWVYSPLHYS L13L | 0.02907 |  |
| FPTDERSWVYSPLHYS S7T (FPTDERTWVYSPLHYS) | 0.03548 |  |
| FPTDERSWVYSPLHYS T3K (FPKDERSWVYSPLHYS) | 0.003486 |  |
| TDERSWVYSPLHYSAQ E3V (TDVRSWVYSPLHYSAQ) | 0.0174 |  |
| TDERSWVYSPLHYS(averaged) R4I (TDEISWVYSPLHYS) |  | DMS-derived PSSM value, averaged over the two overlapping peptides: 0.03787 |
| TDERSWVYSPLHYS(averaged) S5R (TDERRWVYSPLHYS) |  | DMS-derived PSSM value, averaged over the two overlapping peptides: 0.06127 |
| TDERSWVYSPLHYS(averaged) Y13K (TDERSWVYSPLHKS) |  | DMS-derived PSSM value, averaged over the two overlapping peptides: 0.05868 |
| LADLIATDSKLYIPLE (Ac-LADLIATDSKLYIPLE-NH2) [TPTE2_F97A] |  | NGS_counts log2_total: 1.58 |

| Substance | DMS-derived PSSM value of the single-substitution variant | also measured |
| --- | --- | --- |
| FPTDERSWVYSPLHYS Y15T (FPTDERSWVYSPLHTS) | 0.02913 |  |
| TDERSWVYSPLHYSAQ R4P (TDEPSWVYSPLHYSAQ) | 0.01303 |  |
| TDERSWVYSPLHYSAQ H12R (TDERSWVYSPLRYSAQ) | 0.004644 |  |
| FPTDERSWVYSPLHYS L13M (FPTDERSWVYSPMHYS) | 0.1321 |  |
| FPTDERSWVYSPLHYS L13H (FPTDERSWVYSPHHYS) | 0.004675 |  |
| TDERSWVYSPLHYS(averaged) S14F (TDERSWVYSPLHYF) |  | DMS-derived PSSM value, averaged over the two overlapping peptides: 0.02637 |
| Ac-LADLIFTDSALYIPLE-NH2 [TPTE2_K101A] |  | NGS_counts log2_total [1]: 7.83 |
| TDERSWVYSPLHYSAQ T1W (WDERSWVYSPLHYSAQ) | 0.03019 |  |
| FPTDERSWVYSPLHYS D4K (FPTKERSWVYSPLHYS) | 0 |  |
| TDERSWVYSPLHYSAQ H12E (TDERSWVYSPLEYSAQ) | 0.04351 |  |
| TDERSWVYSPLHYSAQ S9H (TDERSWVYHPLHYSAQ) | 0.01252 |  |
| TDERSWVYSPLHYSAQ V7K (TDERSWKYSPLHYSAQ) | 0.03056 |  |
| TDERSWVYSPLHYS(averaged) S9R (TDERSWVYRPLHYS) |  | DMS-derived PSSM value, averaged over the two overlapping peptides: 0.0004416 |
| TDERSWVYSPLHYS(averaged) W6P (TDERSPVYSPLHYS) |  | DMS-derived PSSM value, averaged over the two overlapping peptides: 0.03116 |
| FPTDERSWVYSPLHYS W8V (FPTDERSVVYSPLHYS) | 0 |  |
| FPTDERSWVYSPLHYS H14I (FPTDERSWVYSPLIYS) | 0.007983 |  |
| TDERSWVYSPLHYS(averaged) Y13L (TDERSWVYSPLHLS) |  | DMS-derived PSSM value, averaged over the two overlapping peptides: 0.01823 |
| TDERSWVYSPLHYS(averaged) L11R (TDERSWVYSPRHYS) |  | DMS-derived PSSM value, averaged over the two overlapping peptides: 0.02234 |
| TDERSWVYSPLHYSAQ A15Y (TDERSWVYSPLHYSYQ) | 0.002752 |  |
| TDERSWVYSPLHYS(averaged) E3G (TDGRSWVYSPLHYS) |  | DMS-derived PSSM value, averaged over the two overlapping peptides: 0.03744 |
| FPTDERSWVYSPLHYS V9E (FPTDERSWEYSPLHYS) | 0.05692 |  |
| TDERSWVYSPLHYS(averaged) D2R (TRERSWVYSPLHYS) |  | DMS-derived PSSM value, averaged over the two overlapping peptides: 0.04457 |
| TDERSWVYSPLHYSAQ S9S | 0.626 |  |

| Substance | DMS-derived PSSM value of the single-substitution variant | also measured |
| --- | --- | --- |
| TDERSWVYSPLHYSAQ Y13Q (TDERSWVYSPLHQSAQ) | 0.03935 |  |
| TDERSWVYSPLHYS(averaged) W6G (TDERSGVYSPLHYS) |  | DMS-derived PSSM value, averaged over the two overlapping peptides: 0.001993 |
| TDERSWVYSPLHYSAQ T1T | 0.2049 |  |
| TDERSWVYSPLHYSAQ E3I (TDIRSWVYSPLHYSAQ) | 0.04321 |  |
| TDERSWVYSPLHYSAQ V7V | 0.07907 |  |
| TDERSWVYSPLHYSAQ R4G (TDEGSWVYSPLHYSAQ) | 0.05137 |  |
| FPTDERSWVYSPLHYS E5N (FPTDNRSWVYSPLHYS) | 0.1109 |  |
| TDERSWVYSPLHYSAQ A15M (TDERSWVYSPLHYSMQ) | 0.004691 |  |
| TDERSWVYSPLHYSAQ V7I (TDERSWIYSPLHYSAQ) | 0.005489 |  |
| TDERSWVYSPLHYS(averaged) D2E (TEERSWVYSPLHYS) |  | DMS-derived PSSM value, averaged over the two overlapping peptides: 0.02561 |
| TDERSWVYSPLHYSAQ S9E (TDERSWVYEPLHYSAQ) | 0.005796 |  |
| FPTDERSWVYSPLHYS S16T (FPTDERSWVYSPLHYT) | 0.07976 |  |
| TDERSWVYSPLHYSAQ D2T (TTERSWVYSPLHYSAQ) | 0.01567 |  |
| TDERSWVYSPLHYS(averaged) T1T |  | DMS-derived PSSM value, averaged over the two overlapping peptides: 0.1158 |
| FPTDERSWVYSPLHYS D4L (FPTLERSWVYSPLHYS) | 0.1193 |  |
| TDERSWVYSPLHYSAQ E3W (TDWRSWVYSPLHYSAQ) | 0.2032 |  |
| TDERSWVYSPLHYSAQ H12H | 0.2004 |  |
| FPTDERSWVYSPLHYS R6E (FPTDEESWVYSPLHYS) | 0 |  |
| FPTDERSWVYSPLHYS T3A (FPADERSWVYSPLHYS) | 0.01832 |  |
| TDERSWVYSPLHYSAQ D2L (TLERSWVYSPLHYSAQ) | 0.03742 |  |
| TDERSWVYSPLHYSAQ P10F (TDERSWVYSFLHYSAQ) | 0.04613 |  |
| TDERSWVYSPLHYS(averaged) P10K (TDERSWVYSKLHYS) |  | DMS-derived PSSM value, averaged over the two overlapping peptides: 0.08346 |
| TDERSWVYSPLHYS(averaged) W6K (TDERSKVYSPLHYS) |  | DMS-derived PSSM value, averaged over the two overlapping peptides: 0.003135 |

| Substance | DMS-derived PSSM value of the single-substitution variant | also measured |
| --- | --- | --- |
| TDERSWVYSPLHYS(averaged) D2L (TLERSWVYSPLHYS) |  | DMS-derived PSSM value, averaged over the two overlapping peptides: 0.07833 |
| TDERSWVYSPLHYS(averaged) E3Q (TDQRSWVYSPLHYS) |  | DMS-derived PSSM value, averaged over the two overlapping peptides: 0.008672 |
| TDERSWVYSPLHYS(averaged) S9K (TDERSWVYKPLHYS) |  | DMS-derived PSSM value, averaged over the two overlapping peptides: 0 |
| TDERSWVYSPLHYSAQ V7R (TDERSWRYSPLHYSAQ) | 0.04163 |  |
| TDERSWVYSPLHYSAQ S9F (TDERSWVYFPLHYSAQ) | 0.002289 |  |
| Ac-LADLIWTDSKLYIPLE-NH2 [TPTE2_F97W] |  | NGS_counts log2_total [1]: 7.16 |
| TDERSWVYSPLHYS(averaged) P10M (TDERSWVYSMLHYS) |  | DMS-derived PSSM value, averaged over the two overlapping peptides: 0.02256 |
| TDERSWVYSPLHYSAQ P10L (TDERSWVYSLLHYSAQ) | 0.1545 |  |
| FPTDERSWVYSPLHYS V9G (FPTDERSWGYSPLHYS) | 0.01134 |  |
| TDERSWVYSPLHYSAQ L11E (TDERSWVYSPEHYSAQ) | 0.02353 |  |
| FPTDERSWVYSPLHYS T3Y (FPYDERSWVYSPLHYS) | 0.1508 |  |
| FPTDERSWVYSPLHYS L13T (FPTDERSWVYSPTHYS) | 0.007563 |  |
| TDERSWVYSPLHYS(averaged) S9W (TDERSWVYWPLHYS) |  | DMS-derived PSSM value, averaged over the two overlapping peptides: 0.0141 |
| FPTDERSWVYSPLHYS L13Q (FPTDERSWVYSPQHYS) | 0.01142 |  |
| TDERSWVYSPLHYS(averaged) W6H (TDERSHVYSPLHYS) |  | DMS-derived PSSM value, averaged over the two overlapping peptides: 0 |
| TDERSWVYSPLHYS(averaged) R4W (TDEWSWVYSPLHYS) |  | DMS-derived PSSM value, averaged over the two overlapping peptides: 0.01711 |
| TDERSWVYSPLHYS(averaged) V7F (TDERSWFYSPLHYS) |  | DMS-derived PSSM value, averaged over the two overlapping peptides: 0.007422 |
| TDERSWVYSPLHYS(averaged) S14S |  | DMS-derived PSSM value, averaged over the two overlapping peptides: 0.06152 |
| TDERSWVYSPLHYSAQ R4I (TDEISWVYSPLHYSAQ) | 0.00064 |  |
| TDERSWVYSPLHYSAQ R4E (TDEESWVYSPLHYSAQ) | 0.03067 |  |
| FPTDERSWVYSPLHYS E5S (FPTDSRSWVYSPLHYS) | 0.02969 |  |
| TDERSWVYSPLHYSAQ S9V (TDERSWVYVPLHYSAQ) | 0.002911 |  |

Where two headings read alike, the source gives them in different places.
